Key:
[1] = Brain weight of rTg4510 mice (Example 2); type: in vivo, mouse; details: rTg4510 CC mice receiving risperidone or DS
Description: Brain Tissue Collection: Mice were decapitated and the brains rapidly extracted. Brains were briefly washed in saline and blot dried then hemisected, weighed separately and frozen on dry ice before storage at approximately −80° C.
Brain weights were analysed by 2-way analysis of variance with treatment and cohort as factors.

[2] = Weekly body weight of rTg4510 mice (Example 2); type: in vivo, mouse; details: acute and chronic efficacy phases, weeks 30-32; Risperidone or DS
Description: Weekly bodyweight: all animals were weighed weekly until the end of the study.
Weekly body weight data were analysed by mixed linear model with the cohort by week and group by week interactions as fixed effects, animal as the random subject, using an AR (1)+RE correlation structure. Comparisons to the WW and rTg4510 (vehicle) groups for the same week were by the multiple t test.

In the case of `Cc1nc2n(c(=O)c1CCN1CCC(c3noc4cc(F)ccc34)CC1)CCCC2` [Risperidone], the “brain weight vs rTg4510 CC mice which received vehicle” value [1] is reported as “no significant differences” and the changes in bodyweight [2] is reported as “no significant changes”.

From patent US20260144805A1, “CANNABIDIOL COMPOSITIONS FOR USE IN THE TREATMENT OF NEURODEGENERATIVE AND NEUROLOGICAL DISORDERS” (JAZZ PHARMACEUTICALS RESEARCH UK LIMITED, priority 2022, published 2026)
